Among the data in patent publication US11591366B2, “Macrocyclic compounds and methods of preventing or treating pain” (SOCPRA SCIENCES SANTÉ ET HUMAINES S.E.C., priority 2017, dated 2023) are EC50 and half-life values, retold here.

Chains of the proteins cited; added tags and fusions are not shown.
UniProt P30989, whole entry: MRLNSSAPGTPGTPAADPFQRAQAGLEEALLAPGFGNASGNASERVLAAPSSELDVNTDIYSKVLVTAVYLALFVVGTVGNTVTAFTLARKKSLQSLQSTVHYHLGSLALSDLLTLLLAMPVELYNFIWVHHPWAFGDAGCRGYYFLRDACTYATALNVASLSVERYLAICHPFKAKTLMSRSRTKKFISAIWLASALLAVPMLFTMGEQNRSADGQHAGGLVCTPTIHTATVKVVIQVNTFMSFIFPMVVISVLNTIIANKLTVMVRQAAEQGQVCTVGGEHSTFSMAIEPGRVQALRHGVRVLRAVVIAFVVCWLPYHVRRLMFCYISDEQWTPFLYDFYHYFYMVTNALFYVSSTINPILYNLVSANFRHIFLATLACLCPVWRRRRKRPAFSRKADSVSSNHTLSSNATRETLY

For series [1], the target named is T1, hNTS1 (β-arrestin 1 recruitment) (Homo sapiens, UniProt P30989).
T1 construct: expressed in transfected cells; host or cells: CHO-K1, transient transfection with PEI
In words: BRET biosensor assay, β-arrestin 1 recruitment. Type of series: cell-based. The settings on record: CHO-K1 cells transiently transfected with hNTS1 and biosensors, mean ± SEM, read-out: EC50 β-arr1.

Series [2] concerns the target T2, hNTS1 (β-arrestin 2 recruitment) (Homo sapiens, UniProt P30989).
T2 construct: expressed in transfected cells; host or cells: CHO-K1, transient transfection with PEI
Put plainly: BRET biosensor assay, β-arrestin 2 recruitment. Type of series: cell-based. For orientation: In BRET a luciferase serves as donor, and the signal depends on an acceptor being close.

Another series is described as follows: Plasma stability assay. It is filed as in vitro ADME. The settings on record: rat plasma at 37° C. As for the experimental part:
Rat plasma was obtained by centrifugation of rat blood (13000 rpm, 5 min, 4° C.). […] Proteolytic degradation was quenched by adding 70 μL of acetonitrile/ethanol (1:1), 0.5% nicotinamide solution and vortexing. […] Data were analyzed using GraphPad Prism 7's one phase decay equation.

Setting [3] is: BRET, CHO-K1 cells transiently transfected with hNTS1 and biosensors, mean ± SEM, read-out: EC50 β-arr2.

Structures are written as SMILES. Like-named read-outs stand apart in the source and are kept apart here.

A word on the EC50: it is the concentration that produces a half-maximal response. Turning to `CCC(C)[C@H](NC(=O)[C@@H]1Cc2ccc(O)c(c2)CC=CCCNCCCC[C@H](N)C(=O)N[C@@H](CCCCN)C(=O)N2CCC[C@H]2C(=O)N1)C(=O)N[C@@H](CC(C)C)C(=O)O` (stereo partly shown) [Compound 9, c[K(butenyl)KPY(All)]IL], the EC50 in series [1] came to 0.024 ± 5e-05 µM.
`CCC(C)[C@H](NC(=O)[C@@H]1Cc2ccc(O)c(c2)CC=CCN(S(=O)(=O)c2ccccc2[N+](=O)[O-])CCCC[C@H](N)C(=O)N[C@@H](CCCCN)C(=O)N2CCC[C@H]2C(=O)N1)C(=O)N[C@@H](CC(C)C)C(=O)O` (stereo partly shown) [Compound 5, c[K(All)(S(O)2(o-nitrophenyl))KPY(All)]IL]: the EC50 in series [2] (setting [3]) is 0.092 ± 5e-05 µM.
Turning to `CCC(C)[C@H](NC(=O)[C@@H]1Cc2ccc(O)c(c2)CC=CCNCCCC[C@@H](N)C(=O)N[C@@H](CCCCN)C(=O)N2CCC[C@H]2C(=O)N1)C(=O)N[C@@H](CC(C)C)C(=O)O` (stereo partly shown) [Compound 4, c[K(All)KPY(All)]IL], the half-maximal effective concentration (EC50) in series [2] (setting [3]) stood at 0.201 ± 5e-05 µM.
Regarding `CCC(C)[C@H](NC(=O)[C@@H]1Cc2ccc(O)c(c2)CC=CCCCNCCCC[C@H](N)C(=O)N[C@@H](CCCCN)C(=O)N2CCC[C@H]2C(=O)N1)C(=O)N[C@@H](CC(C)C)C(=O)O` (stereo partly shown) [Compound 10, c[K(pentenyl)KPY(All)]IL], in series [2] (setting [3]), the 50% effective concentration (EC50) stood at 0.024 ± 5e-05 µM.
The half-life is how long it takes for the measured level to halve. Higher therefore signals slow decline. Molecule `CCC(C)[C@H](NC(=O)[C@@H]1Cc2ccc(O)c(c2)CC=CCNCCCC[C@H](N)C(=O)N[C@@H](CCCCN)C(=O)N2CCC[C@H]2C(=O)N1)C(=O)N[C@@H](CC(C)C)C(=O)O` (stereo partly shown) [Compound 2, c[K(All)KPY(All)]IL] displayed an EC50 in series [2] of 0.021 ± 5e-05 µM. This molecule registered a half-life at […] in “Plasma stability assay” of 19 min.
On to `CCC(C)[C@H](NC(=O)[C@@H]1Cc2ccc(O)c(c2)CC=CCNCC[C@H](N)C(=O)N[C@@H](CCCCN)C(=O)N2CCC[C@H]2C(=O)N1)C(=O)N[C@@H](CC(C)C)C(=O)O` (stereo partly shown) [Compound 8, c[Dab(All)KPY(All)]IL], for which, in series [2] (setting [3]), the concentration giving a half-maximal response (EC50) was 0.019 ± 4e-05 µM.
